# Laboratory results: ChEMBL document CHEMBL1127636, “The development of cyclic sulfolanes as novel and high-affinity P2 ligands for HIV-1 protease inhibitors” (J Med Chem, 1994)
# Target: Human immunodeficiency virus type 1 protease (Human immunodeficiency virus 1, UniProt Q72874)
# Test: Inhibitory activity against HIV-1 protease
# Summary of the method: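 Purified HIV-1 protease, prepared by a previously described method. IC50 reported; determinations were single (n = 1) unless otherwise indicated.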
compound,measurement,value
CC(C)(C)NC(=O)[C@@H]1C[C@@H]2CCCC[C@@H]2CN1C[C@@H](O)[C@H](Cc1ccccc1)NC(=O)O[C@H]1CCOC1,IC50,132 nM
